ChEMBL document CHEMBL1141902, “Functionalization at position 3 of the phenyl ring of the potent mGluR5 noncompetitive antagonists MPEP” (Bioorg Med Chem Lett, 2005)

Amino acid sequences for entries named in this document (tags omitted).
UniProt P31424, whole entry: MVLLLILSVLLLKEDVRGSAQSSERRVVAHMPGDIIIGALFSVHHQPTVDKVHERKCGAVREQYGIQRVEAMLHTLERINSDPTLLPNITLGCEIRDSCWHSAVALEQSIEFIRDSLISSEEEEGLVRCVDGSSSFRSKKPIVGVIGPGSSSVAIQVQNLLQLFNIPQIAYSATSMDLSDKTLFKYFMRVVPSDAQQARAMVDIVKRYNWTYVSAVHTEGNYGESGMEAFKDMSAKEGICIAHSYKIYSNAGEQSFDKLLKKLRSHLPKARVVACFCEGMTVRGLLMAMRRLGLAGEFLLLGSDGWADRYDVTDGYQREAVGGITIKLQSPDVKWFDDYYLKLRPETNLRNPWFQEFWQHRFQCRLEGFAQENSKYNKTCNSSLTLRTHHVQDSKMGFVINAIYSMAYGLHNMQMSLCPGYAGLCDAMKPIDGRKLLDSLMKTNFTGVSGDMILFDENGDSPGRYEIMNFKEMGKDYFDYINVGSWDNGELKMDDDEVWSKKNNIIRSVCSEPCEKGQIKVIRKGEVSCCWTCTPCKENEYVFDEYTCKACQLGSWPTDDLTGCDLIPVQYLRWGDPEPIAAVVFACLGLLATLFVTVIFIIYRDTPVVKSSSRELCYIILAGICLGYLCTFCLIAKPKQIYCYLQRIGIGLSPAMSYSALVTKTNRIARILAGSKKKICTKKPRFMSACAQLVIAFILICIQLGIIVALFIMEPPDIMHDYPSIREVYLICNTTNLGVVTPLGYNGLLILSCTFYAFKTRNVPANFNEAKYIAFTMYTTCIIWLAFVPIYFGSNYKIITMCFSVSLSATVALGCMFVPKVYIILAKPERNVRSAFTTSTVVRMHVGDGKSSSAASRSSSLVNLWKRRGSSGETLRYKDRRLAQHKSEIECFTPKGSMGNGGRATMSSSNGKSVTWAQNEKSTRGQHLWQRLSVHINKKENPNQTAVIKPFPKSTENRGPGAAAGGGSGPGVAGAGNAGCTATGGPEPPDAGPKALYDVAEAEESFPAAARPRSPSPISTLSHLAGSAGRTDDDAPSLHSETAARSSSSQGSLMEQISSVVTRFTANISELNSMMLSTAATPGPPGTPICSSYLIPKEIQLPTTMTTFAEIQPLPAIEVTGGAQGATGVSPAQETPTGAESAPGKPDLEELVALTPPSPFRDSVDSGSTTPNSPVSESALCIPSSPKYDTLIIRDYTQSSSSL

Target: Metabotropic glutamate receptor 5 (Rattus norvegicus, UniProt P31424)
Experiment: Concentration required for 50% inhibition of rat metabotropic glutamate receptor 5 was determined using inositol phosphate hydrolysis assay

Cc1cccc(C#Cc2ccccc2)n1
IC50: 0.036 µM
